Values quoted from earlier work, collected in patent US20210198628A1, “BASAL MEDIA FOR GROWING NK-92 CELLS” (NantKwest, Inc., priority 2018, published 2021).

Tested on: NK-92® cells
Conditions: NK-92 cells in culture

Substance: rIL-2: recombinant interleukin 2
- dose sufficient to maintain proliferation: 1 IU/mL
